We go through two molecules from patent publication US20150320880A1, “ANTIBODY DRUG CONJUGATES” (NOVARTIS AG, priority 2013, published 2015).

The chains behind the UniProt entries cited, without tags or fusion partners. Where a name states a change or a piece, a line headed by the entry shows the natural chain unless it says otherwise.
UniProt P10721: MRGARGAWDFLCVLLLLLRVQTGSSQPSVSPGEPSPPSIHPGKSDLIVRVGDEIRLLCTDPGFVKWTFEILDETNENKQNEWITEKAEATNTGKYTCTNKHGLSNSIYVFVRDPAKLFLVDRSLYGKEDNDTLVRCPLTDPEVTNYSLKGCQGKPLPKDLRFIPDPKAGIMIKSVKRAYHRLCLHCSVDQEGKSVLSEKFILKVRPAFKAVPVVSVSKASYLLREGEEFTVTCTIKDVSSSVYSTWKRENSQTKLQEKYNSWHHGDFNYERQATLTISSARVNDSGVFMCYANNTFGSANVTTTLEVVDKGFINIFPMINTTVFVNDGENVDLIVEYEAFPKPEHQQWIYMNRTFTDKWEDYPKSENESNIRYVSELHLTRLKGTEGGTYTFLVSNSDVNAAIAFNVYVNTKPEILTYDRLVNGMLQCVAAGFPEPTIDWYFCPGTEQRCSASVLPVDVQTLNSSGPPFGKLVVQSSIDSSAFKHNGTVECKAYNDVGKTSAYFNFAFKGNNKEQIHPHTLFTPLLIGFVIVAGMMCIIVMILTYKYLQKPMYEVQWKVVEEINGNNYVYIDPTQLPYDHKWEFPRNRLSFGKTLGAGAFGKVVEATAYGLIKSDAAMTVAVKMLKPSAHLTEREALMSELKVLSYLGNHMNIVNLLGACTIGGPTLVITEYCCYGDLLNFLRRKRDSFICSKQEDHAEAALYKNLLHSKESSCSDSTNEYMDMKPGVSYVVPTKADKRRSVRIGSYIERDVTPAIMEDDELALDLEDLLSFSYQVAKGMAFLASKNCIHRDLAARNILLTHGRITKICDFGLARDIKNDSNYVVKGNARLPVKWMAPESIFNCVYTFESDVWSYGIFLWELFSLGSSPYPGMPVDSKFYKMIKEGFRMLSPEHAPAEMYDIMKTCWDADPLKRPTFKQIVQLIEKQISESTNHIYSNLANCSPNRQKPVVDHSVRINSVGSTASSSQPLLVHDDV

In the assay the target is T1, Human cKIT D1-5 (human cKIT tr. variant 2, residues 26-520, C-terminal His tag) (human, UniProt P10721 26-524).
T1 construct: also called human cKIT ECD; Human c-Kit ECD
Put plainly: SPR (Biacore T100), CM5 chip, method as in Example 7; MCC-DM1 conjugate.

B1: NEG024-MCC-DM1 (antibody, human IgG1, kappa, V domains shown)
VH: EVQLVESGGGLVQPGGSLRLSCAASGFTFSDYYMAWVRQAPGKGLEWVANINQIAGSTYYLDSVRGRFTISRDNAKNSLYLQMNSLRAEDTAVYYCARGDYYGTTYWYFDVWGQGTTVTVSS
VL: EIVMTQSPATLSLSPGERATLSCRASQDISNYLNWYQQKPGQAPRLLIYYTSRLQSGIPARFSGSGSGTDYTLTISSLEPEDFAVYYCQQGKKLWSFGGGTKVEIKR
modifications: DM1 linked through the MCC (SMCC) linker to primary amines of the antibody, sites not stated; DM1 linked through the MCC (SMCC) linker to primary amines of the antibody, sites not stated; average MAR 4 (Table 7)
notes: Antibody drug conjugate of NEG024
B1 gave an equilibrium dissociation constant (Kd) of 1.1 nM.

B2: 20376-MCC-DM1 (antibody, human IgG1, lambda, V domains shown)
VH: QVQLVQSGAEVKKPGSSVKVSCKASGGTFSSYAISWVRQAPGQGLEWMGGIIPMSGRTTYAQKFQGRVTITADESTSTAYMELSSLRSEDTAVYYCARDYGPEAPDYGQSTSYFWYYAFDPWGQGTLVTVSS
VL: DIELTQPPSVSVSPGQTASITCSGDNIPSYFVHWYQQKPGQAPVLVIYDDNDRPSGIPERFSGSNSGNTATLTISGTQAEDEADYYCSSWDQDTVVFGGGTKLTVLG
modifications: DM1 linked through the MCC (SMCC) linker to primary amines of the antibody, sites not stated; DM1 linked through the MCC (SMCC) linker to primary amines of the antibody, sites not stated; average MAR 3.8 (Table 7)
In turn, B2 had a Kd of 11.2 nM.
